Results on 1 molecule are retold here after paper PMC7066245 (Scientific Reports, 2020).

In experiment [1] the test system is RPMI8226 myeloma cancer cells. The experiment in a line: resazurin viability assay, RPMI8226. To be noted: read-out: IC50 RPMI8226, 48 h incubation. It counts as cell-based, human.
Experiment [2] concerns HL60 promyelocytic leukemia cells. The experiment in a line: resazurin viability assay, HL60. In kind it is cell-based, human. To be noted: read-out: IC50 HL60, 48 h incubation. (In general: Resazurin is reduced to fluorescent resorufin, in cell work by metabolically active cells.)
For experiment [3], the system named is THP1 acute monocytic leukemia cells. The experiment in a line: resazurin viability assay, THP1. It counts as cell-based, human. Particulars: read-out: IC50 THP1, 48 h incubation.
Experiment [4] has as its system normal peripheral blood-derived mononuclear cells (PBMC). The experiment in a line: resazurin viability assay, PBMC. It counts as cell-based. To be noted: read-out: IC50 PBMC, 48 h incubation.
In experiment [5] the test system is RPMI8226 cells. The experiment in a line: alkaline comet assay, RPMI8226. In kind it is cell-based, human. To be noted: RPMI8226, 48 h, 3 µM.
For experiment [6], the system named is THP1 cells. The experiment in a line: alkaline comet assay, THP1. In kind it is cell-based, human. To be noted: THP1, 48 h, 0.3 μM.

The term IC50 denotes the point on the concentration scale where inhibition reaches its midpoint. `COC(=O)C(N)Cc1ccc(N(CCCl)CCCl)cc1` (stereo not drawn): the IC50 is 1050 nM in experiment [1], 770 nM in experiment [2], 320 nM in experiment [3] and 2390 nM in experiment [4]. For the same molecule, in experiment [5], the “DNA damage (tail DNA), RPMI8226” value is on record as ~ 38%. Moreover, the “DNA damage (tail DNA), THP1” value in experiment [6] is recorded as ~ 15%.
